The results in this text go back to PubChem BioAssay AID803 (The Scripps Research Institute Molecular Screening Center, 2007).

Amino acid sequences for entries named in this document (tags omitted).
UniProt O43603, whole entry: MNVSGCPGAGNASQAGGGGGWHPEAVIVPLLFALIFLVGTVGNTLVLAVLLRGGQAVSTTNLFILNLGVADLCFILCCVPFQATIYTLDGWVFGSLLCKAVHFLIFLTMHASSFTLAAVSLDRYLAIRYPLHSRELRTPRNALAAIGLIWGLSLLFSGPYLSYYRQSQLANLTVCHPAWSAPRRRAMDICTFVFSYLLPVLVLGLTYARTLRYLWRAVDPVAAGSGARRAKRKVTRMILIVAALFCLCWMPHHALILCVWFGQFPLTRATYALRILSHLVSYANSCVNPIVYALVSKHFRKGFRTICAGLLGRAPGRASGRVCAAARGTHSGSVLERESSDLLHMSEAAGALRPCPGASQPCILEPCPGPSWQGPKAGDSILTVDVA

Only a part is listed here, and it is no random draw. Calls of active or inactive are those of the source. Rule as the data show it: active = activation above about 5% (passing the limit was not always enough); inactive = the rest.

The target in the assay is Galanin receptor type 2 (Homo sapiens) (UniProt O43603). The assay is described as follows: human galanin receptor 2 activators – cell-based, primary screen (AID 803).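 Also: 0% = vehicle buffer wells and 100% = reference agonist at full effect.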 The conditions noted are these: GALR2-expressing cells, agonist activation read-out; at 5.6 µM; stronger effect = higher value.
In the case of `Oc1ccccc1CNc1ccccn1`, the activation was inactive: -1.36%.
